These are literature values, as cited in patent EP0719130B1, “COMPLEX CALCIUM AND FLUORIDE CONTAINING MOUTH RINSES, DENTIFRICES, AND CHEWABLE TABLETS” (AMERICAN DENTAL ASSOCIATION HEALTH FOUNDATION, priority 1993, dated 1995).

For this data set the following is noted: buffer acid or salt.

Each structure is given as a SMILES string.

For the molecule `O=C(O)CCC(=O)O` [succinic acid], the pK is on record as 5.61.
